Assay results taken from ChEMBL document CHEMBL1125719, “2-(3,4-Dichlorophenyl)-N-methyl-N-[2-(1-pyrrolidinyl)-1-substituted- ethyl]-acetamides: the use of conformational analysis in the development of a novel series of potent opioid kappa agonists” (1991).

Protein sequences, listed by entry. Tags and fused reporters are not part of them. Lines headed by an entry give the natural chain unless they say otherwise; changes in a name come on top.
UniProt P41144: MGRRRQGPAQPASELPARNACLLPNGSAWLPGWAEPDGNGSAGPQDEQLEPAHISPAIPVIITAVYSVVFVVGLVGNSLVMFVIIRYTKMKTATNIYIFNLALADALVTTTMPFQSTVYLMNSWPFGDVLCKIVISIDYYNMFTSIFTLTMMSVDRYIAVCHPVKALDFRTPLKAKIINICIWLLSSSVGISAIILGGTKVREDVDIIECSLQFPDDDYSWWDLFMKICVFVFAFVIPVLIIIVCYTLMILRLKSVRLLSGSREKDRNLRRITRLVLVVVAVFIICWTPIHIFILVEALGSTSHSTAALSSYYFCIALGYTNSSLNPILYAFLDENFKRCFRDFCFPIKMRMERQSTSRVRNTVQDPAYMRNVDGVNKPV

Columns and labels:
[1] = species: Mus musculus; assay: Molar potency ratio relative to the standard agonist EKC on field-stimulated mouse vas deferens
[2] = species: Mus musculus; assay: Antagonist Ke values of approximately 15 nM which are indicative of k receptor antagonism on field-stimulated mouse vas deferens.
[3] = molecular target: T1, Kappa-type opioid receptor (Cavia porcellus, UniProt P41144); assay: Compound was evaluated for the opioid receptor kappa affinity using guinea pig brain membranes.
[4] = tested on: Mus musculus; assay: Anti-nociceptive activity (Analgesia reversed by 3 mg/kg of naloxone) after administration through the subcutaneous route to female mice.
[5] = molecular target: T1, Kappa-type opioid receptor; assay: Compound was evaluated for the Opioid receptor kappa 1 affinity using guinea pig brain membranes.

Compound	Potency vs EKC [1]	Ke naloxone [2] [nM]	IC50 [3] [nM]	ED50 [4] [mg/kg]	IC50 [5] [nM]
CC(C)[C@@H](CN1CCCC1)N(C)C(=O)Cc1ccc(Cl)c(Cl)c1 [listing 1 of 2 here]	4.3	14.9	–	–	–
CN(C(=O)Cc1ccc(Cl)c(Cl)c1)C1CCCCC1N1CCCC1 (stereo not drawn)	0.11	15.5	96	1.1	–
C[C@@H]([C@H](C)N(C)C(=O)Cc1ccc(Cl)c(Cl)c1)N1CCCC1 [listing 1 of 2 here]	–	–	84.6	–	–
CN(C(=O)Cc1ccc(Cl)c(Cl)c1)[C@H](CN1CCCC1)c1ccccc1	16.1	17.8	–	0.004	6.9
C[C@H]([C@H](C)N(C)C(=O)Cc1ccc(Cl)c(Cl)c1)N1CCCC1	–	–	3410	–	–
CN(C(=O)Cc1ccc(Cl)c(Cl)c1)[C@H](CN1CCCC1)C(C)(C)C	2.5	10.8	24.3	–	–
C[C@@H]([C@H](C)N(C)C(=O)Cc1ccc(Cl)c(Cl)c1)N1CCCC1 [listing 2 of 2 here]	0.013	19.1	–	–	–
CN(CCN1CCCC1)C(=O)Cc1ccc(Cl)c(Cl)c1	–	–	6120	–	–
C[C@@H](CN(C)C(=O)Cc1ccc(Cl)c(Cl)c1)N1CCCC1 [listing 1 of 2 here]	0.002	25	–	–	–
C[C@H](CN1CCCC1)N(C)C(=O)Cc1ccc(Cl)c(Cl)c1	–	–	10000	–	–
C[C@@H](CN(C)C(=O)Cc1ccc(Cl)c(Cl)c1)N1CCCC1 [listing 2 of 2 here]	–	–	1540	–	–
C[C@@H](CN1CCCC1)N(C)C(=O)Cc1ccc(Cl)c(Cl)c1 [listing 1 of 2 here]	–	–	–	–	53.2
CC(C)[C@@H](CN1CCCC1)N(C)C(=O)Cc1ccc(Cl)c(Cl)c1 [listing 2 of 2 here]	–	–	–	–	6.3
CN(C(=O)Cc1ccc(Cl)c(Cl)c1)C(C)(C)CN1CCCC1	0.004	–	2060	–	–
C[C@@H](CN1CCCC1)N(C)C(=O)Cc1ccc(Cl)c(Cl)c1 [listing 2 of 2 here]	0.14	17.3	–	–	–
